Series [1] addresses human recombinant cytochrome P450 2C9 (Homo sapiens (Human), UniProt P11712).
A further series addresses human CYP2C9 (Homo sapiens (Human), UniProt P11712). The settings on record: read-out: Biological Test Example 9 CYP2C9 IC50; Invitrogen kit, OOMR fluorogenic substrate.

The chains behind the UniProt entries cited, without tags or fusion partners.
UniProt P11712, whole entry: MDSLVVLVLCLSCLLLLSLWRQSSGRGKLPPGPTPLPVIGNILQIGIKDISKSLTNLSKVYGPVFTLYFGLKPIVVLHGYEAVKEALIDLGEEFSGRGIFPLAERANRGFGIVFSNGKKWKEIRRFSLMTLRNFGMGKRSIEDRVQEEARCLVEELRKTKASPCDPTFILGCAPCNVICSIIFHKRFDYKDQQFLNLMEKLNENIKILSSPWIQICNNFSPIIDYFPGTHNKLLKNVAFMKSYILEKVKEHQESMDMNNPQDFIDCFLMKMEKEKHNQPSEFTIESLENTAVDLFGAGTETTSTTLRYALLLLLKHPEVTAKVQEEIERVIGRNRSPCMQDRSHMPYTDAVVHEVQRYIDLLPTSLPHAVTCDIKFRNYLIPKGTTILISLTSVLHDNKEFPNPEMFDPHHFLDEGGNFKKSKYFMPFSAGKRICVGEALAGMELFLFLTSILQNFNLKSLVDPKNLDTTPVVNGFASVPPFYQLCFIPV

The structures appear in SMILES notation. Where only a bound is given, the exact number is not on record here.

`CC(C)n1cc(-c2ccc([C@H](C)N3CC[C@](CC(C)(C)O)(c4ccccc4)OC3=O)cc2)ccc1=O` [Example 59, (S)-6-(2-hydroxy-2-methylpropyl)-3-((S)-1-(4-(1-isopropyl-6-oxo-1,6-dihydropyridin-3-yl)phenyl)ethyl)-6-phenyl-1,3-oxazinan-2-one]: in series [1], the IC50 was above 50 µM. As to `C[C@@H](c1ccc(-c2ccc(=O)n(C)c2)cc1)N1CC[C@](CCCO)(c2ccccc2)OC1=O` [Example 30, (R)-6-(3-hydroxypropyl)-3-((S)-1-(4-(1-methyl-6-oxo-1,6-dihydropyridin-3-yl)phenyl)ethyl)-6-phenyl-1,3-oxazinan-2-one], in series [1], the IC50 was above 50 µM.

In the case of `C[C@@H](c1ccc(-c2ccn(C(F)F)c(=O)c2)cc1)N1CC[C@](CC(C)(C)O)(c2ccccc2)OC1=O`, the figures for the IC50 (in series [1]; on human CYP2C9) were 5.1 µM and 3.7 µM, respectively.

The record behind these values is patent US8575157B2, “Cyclic inhibitors of 11beta-hydroxysteroid dehydrogenase 1” (Vitae Pharmaceuticals, Inc., priority 2010, dated 2013).
